System: A/PR/8/34 strain of influenza A virus (H1N1)
Assay type: cell-based

## COc1cc(-c2ccnc3c2c(C)nn3-c2cccc(C(F)(F)F)c2)ccc1O [Compound 33]
  dose response in the TCID50 assay: successfully decreased viral titer with increasing concentration

Reference: paper PMC8290212 (Bioorganic & medicinal chemistry letters, 2019)
